In patent EP4512403A1, “NEUROPEPTIDE B AND W-RECEPTOR AS A TARGET FOR TREATING MOOD DISORDERS AND/OR CHRONIC STRESS” (Friedrich-Schiller-Universität Jena, priority 2023, dated 2025):

System: mice
Conditions: 0.1 µM, 1 µM and 10 µM injected into NAc; scored for 7 days; data not shown

COc1ccc(Oc2c(Cl)cnn(C3c4ccccc4-c4ccccc43)c2=O)cc1 [CYM50769]
health markers score (body weight, state of fur, breathing, posture, stereotypies, movement): 0
